Results taken from publication PMC3210473 (Biotechnology and bioengineering, 2011).

By UniProt entry, the sequences of proteins in these tests, tags left out. Residues count along the entry.
UniProt P03372, 312-595: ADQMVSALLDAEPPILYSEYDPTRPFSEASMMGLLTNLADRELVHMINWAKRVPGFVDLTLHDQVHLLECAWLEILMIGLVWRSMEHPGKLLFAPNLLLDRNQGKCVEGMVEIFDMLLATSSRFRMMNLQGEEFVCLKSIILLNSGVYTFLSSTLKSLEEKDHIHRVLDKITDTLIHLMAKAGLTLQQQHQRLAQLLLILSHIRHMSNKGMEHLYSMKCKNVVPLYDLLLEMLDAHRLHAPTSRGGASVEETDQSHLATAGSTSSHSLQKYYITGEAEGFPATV

Target: sensor 6 (ERα 312-595) (Homo sapiens, UniProt P03372)
Test: split mVenus complementation, flow cytometry
Format: cell-based
Details: transfected HeLa cells, up to […] ligand, […] h

CC(C)(c1ccc(O)cc1)c1ccc(O)cc1 [bisphenol A] was tested, and the “split mVenus complementation, flow cytometry” value was “showed strong induction at micromolar levels, along with bisphenol A”.
